Results as given in BindingDB's records for doi:10.1073/pnas.75.12.6290 (1978).
Where a name gives a salt, the structure may show the parent alone.

Sequences of proteins named here, by UniProt entry; tags and fusion partners are left off.
UniProt P31390, whole entry: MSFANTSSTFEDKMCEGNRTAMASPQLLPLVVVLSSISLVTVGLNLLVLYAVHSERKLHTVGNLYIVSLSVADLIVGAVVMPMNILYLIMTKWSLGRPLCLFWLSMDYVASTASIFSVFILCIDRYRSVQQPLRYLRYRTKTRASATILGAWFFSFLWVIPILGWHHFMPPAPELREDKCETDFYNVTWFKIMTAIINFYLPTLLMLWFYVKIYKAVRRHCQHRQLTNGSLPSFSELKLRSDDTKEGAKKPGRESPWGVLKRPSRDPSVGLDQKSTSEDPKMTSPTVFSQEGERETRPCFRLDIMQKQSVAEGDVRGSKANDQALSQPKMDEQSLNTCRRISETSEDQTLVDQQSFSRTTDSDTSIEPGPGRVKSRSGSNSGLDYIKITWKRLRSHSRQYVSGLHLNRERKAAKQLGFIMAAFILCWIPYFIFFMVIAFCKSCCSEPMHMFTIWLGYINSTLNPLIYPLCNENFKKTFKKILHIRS

Molecular target: Histamine H1 receptor (Rattus norvegicus, UniProt P31390)

Row | SMILES | Ki
1 | COc1ccc(CN(CCN(C)C)c2ccccn2)cc1 | 4.5 nM
2 | CN(C)CCCN1c2ccccc2Sc2ccccc21 | 30 nM
3 | OCCN1CCN(CCCN2c3ccccc3Sc3ccc(C(F)(F)F)cc32)CC1 [2-[4-[3-[2-(trifluoromethyl)phenothiazin-10-yl]propyl]piperazin-1-yl]ethanol;hydrochloride] | 67 nM
4 | CSc1ccc2c(c1)N(CC[C@@H]1CCCCN1C)c1ccccc1S2 [10-[2-(1-Methyl-piperidin-2-yl)-ethyl]-2-methylsulfanyl-10H-phenothiazine (thioridazine)] | 20 nM
5 | CC(CN1c2ccccc2Sc2ccccc21)N(C)C (stereo not drawn) [N,N,alpha-trimethyl-10H-phenothiazine-10-ethanamine] | 2.9 nM
6 | CN(C)CCN(Cc1cccs1)c1ccccn1 [NSC_4098] | 4.5 nM
7 | CN(C)CCCN1c2ccccc2Sc2ccc(Cl)cc21 [[3-(2-Chloro-phenothiazin-10-yl)-propyl]-dimethyl-amine(Chlorpromazine)] | 36 nM
8 | CN(C)CCC(c1ccc(Cl)cc1)c1ccccn1 (stereo not drawn) [clorfeniramina] | 8 nM
